## Yeast mating assay 1: variants of the scFv Ab-14

Data: MIT Lincoln Laboratory AlphaSeq set, Engelhart et al. 2022, doi:10.1038/s41597-022-01779-4, as distributed in FLAb.

Binding partner: SARS-CoV-2 spike HR2 peptide, sequence PDVDLGDISGINAS.

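The parent was found by panning a naive human phage display library on the peptide. Library AAYL50 holds single substitutions and randomly drawn double and triple substitutions in the CDRs. The assay is AlphaSeq: two haploid yeast populations carry antibody and antigen on their surface. Binding brings cells together so that they mate, and sequencing counts the barcode pairs among the diploids. A regression on co-assayed BCL2-family reference pairs converts the normalised counts of each replicate to an apparent Kd. Mating was done three times.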

The variants keep the heavy chain, the linker and the frameworks of Ab-14 (scFv order VH, a (GGGGS)3 linker, VL).
VH: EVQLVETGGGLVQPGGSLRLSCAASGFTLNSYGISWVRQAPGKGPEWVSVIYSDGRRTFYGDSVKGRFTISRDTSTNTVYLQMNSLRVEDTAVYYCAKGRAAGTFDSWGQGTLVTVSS
VL: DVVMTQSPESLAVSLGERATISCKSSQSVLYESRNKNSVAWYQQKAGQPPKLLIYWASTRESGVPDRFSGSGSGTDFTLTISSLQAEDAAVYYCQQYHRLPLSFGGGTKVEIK

Variants are written as CDR1, CDR2 and CDR3 of the light chain (limits as in the source). Parent: KSSQSVLYESRNKNSVA, WASTRES, QQYHRLPLS. Values are log10 of the apparent Kd in nM; lower means stronger binding. A mean of the replicates is given; it leaves out those without a signal. A pair that was not seen in any replicate is written "nd"; this usually means weak binding, but a binder can also be missed. Parent in this assay: reference entry 0.65, copy in this library 1.68. Empty control strains, which show no peptide, gave a signal in 18% of pairings with library AAYL50; the median was 4.19 and 95% of these signals were weaker than 2.99. No background was subtracted.

CDR-L1 | CDR-L2 | CDR-L3 | mean, log10 nM | detected
KSSQSDLYESRNKNSVA | WASTRHS | QQYHRLPLS | 0.74 | 3 of 3
KSSQSVLDESRNKNSVE | WASTRES | QQYHRLPLR | 3.69 | 2 of 3
KSFQSVLYESRNKNSVD | WASTRES | QYYHRLPLS | 4.85 | 1 of 3
KSSQSMLYESRNKPSVA | WVSTRES | QQYHRLPLS | 2.54 | 3 of 3
GSSQSVLYESRNKNSVA | WASTRET | QQYHRLPWS | 2.52 | 3 of 3
KESQSVLYQSRNKNSVA | WASTAES | QQYHRLPLS | nd | 0 of 3
KSSQSVLYESRNKNSVA | WATTRES | TQYCRLPLS | 4.52 | 2 of 3
KSSQSVLYCSRNKNSVA | WASHRES | VQYHRLPLS | 4.56 | 2 of 3
SSSQSVLGESRNKNSYA | WASTRES | QQYHRLPLS | 3.85 | 1 of 3
KSSQSVIYESWNKNSVA | WASTRES | LQYHRLPLS | nd | 0 of 3
PSSQSVLYESRSKNSVA | WASTRES | QQYHRIPLS | 4.11 | 2 of 3
KQSWSVLYESRNKNSVH | WASTRES | QQYHRLPLS | 4.16 | 1 of 3
KSNQSVLYESRNKNSAA | WASTRES | CQYHRLPLS | nd | 0 of 3
KSAQSVLYESINKNSVA | WASTRES | QQKHRLPLS | nd | 0 of 3
KESQSALYESRNKNSVA | WASTRES | QVYHRLPLS | 3.27 | 3 of 3
KSSQSVLYESRNKNSVA | WSSWRER | QQYHRLPLS | nd | 0 of 3
KSSQSVLYESRVKNSVA | WASTCES | QQYHRLPLS | nd | 0 of 3
KNSQWVLYESRNKNSVA | WASTRES | QQYHRLFLS | 4.12 | 2 of 3
KSQQSVLYESRNKNSVA | WARTREC | QQYHRLPLS | nd | 0 of 3
KSSQSVLYESRNKNSVA | WASTIES | QQYHRFPCS | 4.83 | 2 of 3
KSSQSVLYECRNKNSCA | WASCRES | QQYHRLPLS | 4.44 | 1 of 3
KSSQSSRYESRNKNTVA | WASTRES | QQYHRLPLS | 4.85 | 3 of 3
KSSQSVLYESNWKNSVR | WASTRES | QQYHRLPLS | 5.20 | 1 of 3
KSSQSVEYESPNKNSVA | WASTRES | QQYHRLPLS | 0.56 | 3 of 3
KSSQSVLYESRNKNSVA | WASTREY | QQQHRLPLE | 0.98 | 3 of 3
KSSRSVLYESRNKNGVA | WASTRES | QQYHRWPLS | 3.18 | 3 of 3
KSSQSILYESRNKNSVA | RASTRES | HQYHRLPLS | nd | 0 of 3
KSSQSVLNESSNKNSVA | WASTGES | QQYHRLPLS | 1.46 | 3 of 3
KSSQSVLYEIRNKNSVA | WASTRES | CQYHRLPLS | nd | 0 of 3
KSSQSVWPESRNKNSVA | WASTRES | QQYARLPLS | nd | 0 of 3
KSSQSVLYESRNKNTVA | WAYTRES | TQYHRLPLS | nd | 0 of 3
KSRQSVLYESRNKNSVA | WASTRES | QQYHRTPLS | 1.03 | 3 of 3
KSSKSGLYESRNKNSVA | WASTREI | QQYHRLPLS | 1.12 | 3 of 3
KSSQSVLYPSRNKNSVA | WASKRES | QQYHRLPLS | 1.83 | 3 of 3
KSSQQVFYCSRNKNSVA | WASTRES | QQYHRLPLS | nd | 0 of 3
KSSQSVLYESRNKNSVA | WADTWES | QQYHRLPLS | nd | 0 of 3
KSSQSVTYESRGKNSVA | WASTRES | QQYHRLSLS | 0.89 | 3 of 3
KSSQSVLYESRNKNSVC | WASTRDS | QQYKRLPLS | nd | 0 of 3
KSSQSVPYESRNKNSVA | WASTRES | HQRHRLPLS | 4.12 | 1 of 3
KSSQSVHYESRNYNSNA | WASTRES | QQYHRLPLS | 3.17 | 1 of 3
KLSQSVLYESRNKNSVC | WASTRES | QEYHRLPLS | 2.41 | 3 of 3
KSSQSVRYESRNKNSVA | WASTFES | QQYHRLPLS | 4.36 | 2 of 3
KSSQSVLYESRNKNSFA | NAQTRES | QQYHRLPLS | 0.34 | 3 of 3
KSSQSVLYESRNKNDVA | WASERES | QQYHQLPLS | 3.19 | 3 of 3
KSSQSVNYELRDKNSVA | WASTRES | QQYHRLPLS | 0.99 | 3 of 3
KSNQSVLYESRNKNSVA | WASCWES | QQYHRLPLS | nd | 0 of 3
KSSQSVLYESRDKNSVA | WASTRES | DQEHRLPLS | nd | 0 of 3
KSSQSVLDESRNKNSVA | QASTRES | QQPHRLPLS | 3.29 | 3 of 3
KSQQSALYESRNKNSVA | WASTRES | QQRHRLPLS | 4.34 | 1 of 3
KSSQSVKYESRNKNSVA | WASTRES | QQYHRLPLT | nd | 0 of 3
DQMQSVLYESRNKNSVA | WASTRES | QQYHRLPLS | 2.76 | 2 of 3
KSSQSVLYESCNKNSVA | WASHRES | QDYHRLPLS | 2.31 | 3 of 3
KSSQSVLYESRNKNSAA | WESTFES | QQYHRLPLS | nd | 0 of 3
KSSQWVLYRSRNKNSVA | WASTRES | QQYHQLPLS | 2.68 | 3 of 3
KSSQTVLYSSRNKNDVA | WASTRES | QQYHRLPLS | 0.37 | 3 of 3
KSSQSVLYEFRNKNSVA | WASTRNS | QQYHRLPLS | 2.75 | 3 of 3
KSSQSVLYESRNKNSYA | WASTRES | FQYHRLPAS | nd | 0 of 3
KSSQCVLYEHRNSNSVA | WASTRES | QQYHRLPLS | 2.68 | 3 of 3
KSSQSVLYESRNKNSVA | WASTNES | QQYSRLPLS | nd | 0 of 3
KSSQSVLYESRNINSVA | WASTRPS | QQYHRLCLS | 3.89 | 2 of 3
FSSQSVLDESRNKKSVA | WASTRES | QQYHRLPLS | 1.15 | 3 of 3
KSSQSVLYESRNTNSVA | WASTRES | QQYARLPLS | 0.58 | 3 of 3
KSSQSVRYESRNKNSQA | WASTRES | QQYCRLPLS | 5.75 | 1 of 3
KSSQSVLYSSRNKNSVK | WASTRES | QQYHRLRLS | 3.51 | 2 of 3
KSSQSVLYISRNKGSVA | WASTRES | QQYHRLPLW | 5.83 | 1 of 3

The 3 strongest on average among those seen in every replicate, once more:

CDR-L1,CDR-L2,CDR-L3,"mean, log10 nM",detected
KSSQSVLYESRNKNSFA,NAQTRES,QQYHRLPLS,0.34,3 of 3
KSSQTVLYSSRNKNDVA,WASTRES,QQYHRLPLS,0.37,3 of 3
KSSQSVEYESPNKNSVA,WASTRES,QQYHRLPLS,0.56,3 of 3